Drawing on ChEMBL document CHEMBL4706531, “Discovery of Novel c-Mesenchymal-Epithelia transition factor and histone deacetylase dual inhibitors” (Eur J Med Chem, 2020), this text covers inhibition for one compound.

Amino acid sequences for entries named in this document (tags omitted). A change or cut given only in a name is not applied to a line headed by its entry.
UniProt P08581: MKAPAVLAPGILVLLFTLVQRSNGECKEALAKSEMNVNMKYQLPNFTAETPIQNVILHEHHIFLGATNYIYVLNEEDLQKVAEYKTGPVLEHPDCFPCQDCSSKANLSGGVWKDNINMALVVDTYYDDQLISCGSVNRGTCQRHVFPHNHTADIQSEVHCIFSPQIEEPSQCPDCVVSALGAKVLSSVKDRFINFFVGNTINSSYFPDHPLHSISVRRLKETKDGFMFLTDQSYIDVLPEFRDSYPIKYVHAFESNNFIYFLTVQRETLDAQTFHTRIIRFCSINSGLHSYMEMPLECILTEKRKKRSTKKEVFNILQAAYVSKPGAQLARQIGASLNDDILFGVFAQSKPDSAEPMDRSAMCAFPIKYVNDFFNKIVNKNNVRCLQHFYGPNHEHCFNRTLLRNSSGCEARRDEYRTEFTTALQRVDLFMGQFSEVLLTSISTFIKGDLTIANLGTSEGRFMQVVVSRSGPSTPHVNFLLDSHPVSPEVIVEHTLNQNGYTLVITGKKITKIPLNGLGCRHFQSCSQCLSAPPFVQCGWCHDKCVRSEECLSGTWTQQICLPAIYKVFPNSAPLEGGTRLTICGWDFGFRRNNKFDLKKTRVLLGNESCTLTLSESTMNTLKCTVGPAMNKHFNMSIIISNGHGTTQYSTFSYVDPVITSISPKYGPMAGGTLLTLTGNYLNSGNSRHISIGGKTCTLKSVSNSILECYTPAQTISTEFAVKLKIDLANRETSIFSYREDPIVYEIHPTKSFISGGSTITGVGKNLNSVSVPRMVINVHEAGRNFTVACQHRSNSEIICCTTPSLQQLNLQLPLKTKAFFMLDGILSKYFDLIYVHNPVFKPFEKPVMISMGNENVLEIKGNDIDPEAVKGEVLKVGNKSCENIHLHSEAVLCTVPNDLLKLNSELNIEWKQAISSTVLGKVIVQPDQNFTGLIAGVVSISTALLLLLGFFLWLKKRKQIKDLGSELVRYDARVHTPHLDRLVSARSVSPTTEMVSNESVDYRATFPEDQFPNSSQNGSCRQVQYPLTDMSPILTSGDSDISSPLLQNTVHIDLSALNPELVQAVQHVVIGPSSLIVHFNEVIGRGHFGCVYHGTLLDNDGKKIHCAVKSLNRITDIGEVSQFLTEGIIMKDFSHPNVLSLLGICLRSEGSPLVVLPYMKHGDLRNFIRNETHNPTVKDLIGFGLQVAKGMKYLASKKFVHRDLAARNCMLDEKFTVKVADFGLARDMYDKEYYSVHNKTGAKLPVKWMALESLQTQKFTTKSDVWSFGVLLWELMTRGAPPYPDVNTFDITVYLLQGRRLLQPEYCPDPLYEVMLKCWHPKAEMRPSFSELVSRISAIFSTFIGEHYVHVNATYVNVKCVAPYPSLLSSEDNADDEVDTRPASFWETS
UniProt Q13547, whole entry: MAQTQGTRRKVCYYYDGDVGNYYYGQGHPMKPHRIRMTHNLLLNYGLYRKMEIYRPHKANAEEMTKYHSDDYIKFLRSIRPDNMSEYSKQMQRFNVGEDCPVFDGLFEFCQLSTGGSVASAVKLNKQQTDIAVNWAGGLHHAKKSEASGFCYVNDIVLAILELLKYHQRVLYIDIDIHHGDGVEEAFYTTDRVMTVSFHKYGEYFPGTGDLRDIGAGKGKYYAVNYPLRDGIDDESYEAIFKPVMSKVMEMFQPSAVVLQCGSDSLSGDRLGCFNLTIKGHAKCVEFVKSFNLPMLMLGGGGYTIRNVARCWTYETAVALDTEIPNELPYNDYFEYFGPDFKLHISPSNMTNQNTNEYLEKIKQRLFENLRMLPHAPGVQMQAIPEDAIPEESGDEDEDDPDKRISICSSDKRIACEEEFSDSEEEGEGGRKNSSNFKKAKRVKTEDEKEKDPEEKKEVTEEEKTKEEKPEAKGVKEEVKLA

The term inhibition denotes the change of the read-out against control, counted positive when it falls. Higher therefore signals strong suppression.

Test [1] addresses Hepatocyte growth factor receptor (Homo sapiens, UniProt P08581). The conditions noted are these: dose 100.0 nM, time 10.0 min.
In another test the target is Histone deacetylase 1 (Homo sapiens, UniProt Q13547). Particulars: Sf9, dose 100.0 nM, time 75.0 min.

Consider `COc1cc2c(Oc3ccc(NC(=O)c4nn(-c5ccccc5)ccc4=O)cc3)ccnc2cc1OCCCCCCC(=O)NO`, for which the inhibition in test [1] worked out at 96.3%; on Histone deacetylase 1, 88%.
